As usually defined, the inhibition is the drop in the measured response relative to a control, in per cent.

The chains behind the UniProt entries cited, without tags or fusion partners. Residues count along the entry.
UniProt Q9H3R0, 1-420 limits assumed: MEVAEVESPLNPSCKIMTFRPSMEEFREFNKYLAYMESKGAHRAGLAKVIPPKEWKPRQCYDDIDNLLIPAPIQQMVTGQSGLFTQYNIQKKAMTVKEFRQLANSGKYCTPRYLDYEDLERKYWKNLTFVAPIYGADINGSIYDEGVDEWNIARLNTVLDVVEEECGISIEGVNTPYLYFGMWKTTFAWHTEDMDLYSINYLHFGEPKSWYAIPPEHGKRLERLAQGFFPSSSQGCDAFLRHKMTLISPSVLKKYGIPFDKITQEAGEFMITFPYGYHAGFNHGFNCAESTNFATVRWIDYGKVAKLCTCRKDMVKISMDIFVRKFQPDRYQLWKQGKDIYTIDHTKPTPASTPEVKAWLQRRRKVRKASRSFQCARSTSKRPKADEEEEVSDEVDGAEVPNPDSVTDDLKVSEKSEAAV

This is a selection; strong and weak results do not stand in their true shares. Some salts or complexes appear as unconnected parts, following the source record. Calls of active or inactive are those of the source.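 Rule for the calls: active = more than half of a compound's replicate wells show inhibition beyond 50%, single wells judged on their own value; inconclusive = some, but no more than half, of replicates pass 50% inhibition; inactive = no replicate passes 50% inhibition.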

The target of this test is Lysine-specific demethylase 4C (Homo sapiens) (UniProt Q9H3R0). Kind of test: JMJD2C H3K9me3 demethylation blockers – biochemical, fluorescence, DELFIA europium, primary screen (AID 2099).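 Note: signal counts dimethyl H3K9 product captured on neutravidin plate; 0% = median of DMSO wells and 100% = 0.3 times that DMSO median.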 The following applies: GST-JMJD2C(1-420) H3K9me3 demethylation, at 2.35 µM, stronger effect = higher value.
For `CCCOc1ccc(NP(C)(=O)Oc2ccc(Cl)cc2)cc1` (stereo not given), the inhibition is inactive: -12%.
To `COc1ccccc1OP(C)(=O)Nc1c(C)cccc1C` (stereo not given) belongs inactive: -5.16%; to `CN1CCCCC1COC(=O)C1(O)c2ccccc2CCc2ccccc21` (stereo not given), inactive: -1.24%.
Next, `O=[N+]([O-])c1cc([N+](=O)[O-])c(-n2nnc3ccccc32)c([N+](=O)[O-])c1`: inactive: -4.89%; `CCOC(=O)c1ccc(NP(C)(=O)Oc2cc(C)cc(C)c2)cc1` (stereo not given): inactive: 3.04%.
Next, `Cc1cc(C)cc(OP(C)(=O)Nc2ccc(C)cc2C)c1` (stereo not given): inactive: 11%; `COc1ccccc1OP(C)(=O)Nc1cccc(Br)c1` (stereo not given): inactive: -4.55%; `Cc1ccc(C)c(NP(C)(=O)Oc2ccccc2)c1` (stereo not given): inactive: -8.18%.
As to `CP(=O)(Nc1cccc(Br)c1)Oc1ccccc1` (stereo not given), the inhibition is inactive: -2.52%.
Next, `Cc1cc(C)cc(OP(C)(=O)Nc2ccccn2)c1` (stereo not given): inactive: 1.63%; `O=C(O)c1cccc(Nc2c([N+](=O)[O-])cc([N+](=O)[O-])cc2[N+](=O)[O-])c1`: inactive: 5.39%; `CC1=NCCc2c1[nH]c1ccccc21.O=[N+]([O-])c1cc([N+](=O)[O-])c(O)c([N+](=O)[O-])c1`: inactive: 2.44%.
To `CCOC(=O)c1ccc(NP(C)(=O)Oc2ccc(F)cc2)cc1` (stereo not given) belongs inactive: -3.66%; to `COc1ccc(OP(C)(=O)Nc2ccc(SC(F)(F)F)cc2)cc1` (stereo not given), inactive: 24.1%; to `CP(=O)(Nc1ccccc1)Oc1ccc(F)cc1` (stereo not given), inactive: 10.9%.
On to `CCCCCOc1ccc(NP(C)(=O)Oc2ccc(Cl)cc2Cl)cc1` (stereo not given), for which the inhibition was inactive: 7.73%.
For the compound `O=[N+]([O-])c1cc([N+](=O)[O-])c(OC2CCCCC2O)c([N+](=O)[O-])c1` (stereo not given), the inhibition was inactive: 0.683%.
Next, `CCN(CC)CCCOC(=O)C(O)(c1ccccc1)C1CCCCC1` (stereo not given): inactive: -6.84%; `CP(=O)(Nc1ccccc1F)Oc1ccccc1` (stereo not given): inactive: -1.25%; `CC(C)c1ccc(OP(C)(=O)Nc2ccc(SC(F)(F)F)cc2)cc1` (stereo not given): inactive: 28.6%.
Turning to `COc1ccc2c(c1O)-c1c(O)c(OC)cc3c1[C@H](C2)[N+](C)(C)CC3.O=[N+]([O-])c1cc([N+](=O)[O-])c([O-])c([N+](=O)[O-])c1[O-]`, the inhibition is inactive: -2.34%.
To `O=C(OC1CN2CCC1CC2)c1ccc([N+](=O)[O-])cc1` (stereo not given) belongs inactive: -5.58%; to `O=C(OCCN1CCN(CCOCc2ccccc2)CC1)C(O)(c1ccccc1)c1ccccc1`, inactive: -2.58%; to `CCOP(C)(=S)SCC(=O)NC(C)(CC)C(=O)O` (stereo not given), inactive: -2.33%.
To `CP(=O)(Nc1ccc(SC(F)(F)F)cc1)Oc1ccc(F)cc1` (stereo not given) belongs inactive: -3.93%.
With `Cc1ccccc1NP(C)(=O)Nc1ccccc1C`, the inhibition was inactive: -4.81%.
With `CP(=O)(Nc1ccc2c(c1)OCCO2)Oc1ccccc1` (stereo not given), the inhibition was inactive: -4.94%.
Next, `CN(C)CCOC(=O)C(O)(c1ccccc1)C1CCCCC1` (stereo not given): inactive: -0.714%; `COc1ccc(NP(C)(=O)Oc2ccccc2OC)cc1` (stereo not given): inactive: -6.68%.
With `COc1ccc(OP(C)(=O)Nc2cccc(Br)c2)cc1` (stereo not given), the inhibition was inactive: 6.18%.
Next, `O=[N+]([O-])c1ccc(OP2(=O)COCCO2)cc1` (stereo not given): inactive: -0.286%; `Cc1cc(-c2cccc3ccccc23)c(C)cn1.O=[N+]([O-])c1cc([N+](=O)[O-])c(O)c([N+](=O)[O-])c1`: inactive: -6.76%.
To `O=[N+]([O-])c1cc([N+](=O)[O-])c(NCC2CCS(=O)(=O)C2)c([N+](=O)[O-])c1` (stereo not given) belongs inactive: 4.69%; to `CCOC(=O)c1ccc(NP(C)(=O)Oc2ccc(Cl)cc2)cc1` (stereo not given), inactive: 2.79%.
Next, `CP(=O)(OC12CC3CC(CC(C3)C1)C2)OC12CC3CC(CC(C3)C1)C2`: inactive: -5.19%; `Nc1ccc2c(ccc3cccnc32)n1.O=[N+]([O-])c1cc([N+](=O)[O-])c(O)c([N+](=O)[O-])c1`: inactive: -0.521%.
As to `O=C(OCCCN1CCCC1)C(O)(c1ccccc1)C1CCCCC1` (stereo not given), the inhibition is inactive: 23.4%.
On to `COc1ccccc1OP(C)(=O)Nc1c(C)n(C)n(-c2ccccc2)c1=O` (stereo not given), for which the inhibition is inactive: -18.7%.
To `CCc1ccc(OP(C)(=O)Nc2cccnc2)cc1` (stereo not given) belongs inactive: -1.8%; to `CP(=O)(Oc1ccccc1)N1CCOC1=O` (stereo not given), inactive: 0.337%; to `COc1ccc(OP(C)(=O)Nc2ccc(Br)cc2)cc1` (stereo not given), inactive: -2.21%.
To `CCN(CC)CC(O)COC(=O)C(O)(c1ccccc1)C1CCCCC1` (stereo not given) belongs inactive: 0.693%; to `CN(C)C(=O)c1c([N+](=O)[O-])cc([N+](=O)[O-])cc1[N+](=O)[O-]`, inactive: -3.67%; to `CC(C)(C)c1ccc(OP(C)(=O)O)cc1`, inactive: 1.72%.
Next, `COc1ccccc1OP(C)(=O)Nc1ccccc1Br` (stereo not given): inactive: -0.708%; `CP(=O)(Nc1ccc(Cl)cc1)Oc1ccc(F)cc1` (stereo not given): inactive: -2.61%; `COc1ccc(OP(C)(=O)Nc2ccccn2)cc1` (stereo not given): inactive: 1.28%.
For `CN(C)CCOC(=O)C(O)(c1ccccc1)C1CCCC1` (stereo not given), the inhibition is inactive: -3.77%.
To `COc1ccccc1OP(C)(=O)Nc1ccc(Br)cc1` (stereo not given) belongs inactive: -17.9%; to `COc1ccccc1OP(C)(=O)Nc1ccc(C)cc1C` (stereo not given), inactive: -1.71%.
Next, `CP(=O)(Nc1ccccn1)Oc1ccccc1` (stereo not given): inactive: 2.81%; `CCc1ccc(OP(C)(=O)O)cc1`: inactive: -10.3%.
In the case of `O=[N+]([O-])c1cc([N+](=O)[O-])c(Nc2ccccn2)c([N+](=O)[O-])c1`, the inhibition was inactive: -0.518%.
Next, `Cc1c(NP(C)(=O)Oc2ccc(C(C)C)cc2)c(=O)n(-c2ccccc2)n1C` (stereo not given): inactive: 3.82%; `COc1ccccc1OP(C)(=O)Nc1ccc(C)c(C)c1` (stereo not given): inactive: 6.55%.
To `COc1ccc(OP(C)(=O)Nc2ccccc2Br)cc1` (stereo not given) belongs inactive: -1.74%; to `Cc1cc(C)cc(OP(C)(=O)Nc2cccc(C(F)(F)F)c2)c1` (stereo not given), inactive: 4.59%.
Next, `CP(=O)(OCCOc1ccccc1)OCCOc1ccccc1`: inactive: 6.06%.
Consider `CP(=O)(Nc1ccc(Cl)cc1Cl)Oc1ccccc1` (stereo not given), for which the inhibition was inactive: 2.99%.
To `Cc1nc2ccc3ccccc3c2o1.O=[N+]([O-])c1cc([N+](=O)[O-])c(O)c([N+](=O)[O-])c1` belongs inactive: -0.418%.

The values are drawn from PubChem BioAssay AID2099 (Broad Institute, 2009).
